Ab-14 heavy chain CDR variants: yeast mating affinities

Data: MIT Lincoln Laboratory AlphaSeq set, Li et al. 2023, doi:10.1038/s41467-023-39022-2, as distributed in FLAb.

Target: peptide PDVDLGDISGINAS, taken from heptad repeat 2 (HR2) of SARS-CoV-2 spike.

Parent: Ab-14, a human scFv built as VH, the linker GGGGSGGGGSGGGGS, VL. Only the CDRs of the heavy chain vary.
VH: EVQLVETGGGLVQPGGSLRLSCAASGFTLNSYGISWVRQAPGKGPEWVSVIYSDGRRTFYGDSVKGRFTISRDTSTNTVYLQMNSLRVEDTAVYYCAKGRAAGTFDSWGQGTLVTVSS
VL: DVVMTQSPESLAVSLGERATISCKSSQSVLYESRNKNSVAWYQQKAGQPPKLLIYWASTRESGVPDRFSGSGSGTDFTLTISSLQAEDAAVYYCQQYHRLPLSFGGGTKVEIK

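Phage display of a naive human antibody library on the peptide gave the parent. These sequences belong to a second round, designed from the earlier measurements on random variants of the parent. Several design methods are mixed in this list. AlphaSeq pools MATa yeast showing the antibodies with MATalpha yeast showing the peptide. The frequency of each diploid, read from paired DNA barcodes, reflects how well the two displayed proteins bind. Each replicate has its own calibration line, from reference interactions of the BCL2 family. There are six technical replicates.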

The parent's heavy chain CDRs are GFTLNSYGIS, VIYSDGRRTFYGDSVK, GRAAGTFDS; each variant's own CDRs replace them letter for letter. Numbers give log10(Kd / nM), so 0 is 1 nM and 3 is 1 µM. Smaller is tighter. Averages over replicates are reported, and they cover detected replicates only. "not detected" marks a missing value. The strain was present, yet no cells mated with the target were sequenced in any replicate, which points to weak or no binding. Background: pairings of all heavy chain designs with three empty control strains gave a value in 1% of cases (median 2.08, 5th percentile 0.84). Values in that range, when seen in few replicates, are hard to tell from nonspecific mating. Of ten entries with the parent sequence, four were seen in most replicates (averages 0.34 to 2.37), three in one and three in none, so single entries are noisy. Values of this round are not directly comparable with the first-round values of the same sequences. The authors averaged sequences with at least three values out of six and counted those with two or fewer as poor binders.

| log10 Kd (nM), mean | replicates with signal | CDR-H1 | CDR-H2 | CDR-H3 |
|---|---|---|---|---|
| -0.05 | 6/6 | GFTLDEYGIS | VIYADGRRTFYADSVK | GEAAGTFDV |
| not detected | 0/6 | GFGLDEYGIS | VIYADGMRAAYVTSVK | GYEAGTFFT |
| 0.28 | 6/6 | GFSLNSYGIS | VIYSDGRRTYYGDSVK | GRTAGTFDS |
| not detected | 0/6 | GFKLNSYGIS | VIYSDGRRTFYVDSVK | GQTAGTFDS |
| not detected | 0/6 | GFTLNSYGCS | VIYSDGRRTFYSDAVK | GRAGGTFDS |
| 0.59 | 6/6 | GFTLNSYGIS | VIYSDGMRTFYSDSVK | GLTAGTFDS |
| -0.51 | 6/6 | GFSLDEYGIS | VIYADGRRTFYQDDVK | GNVAGTFDM |
| -0.01 | 6/6 | GFQLNEYGIS | VIYSDGKRTFYGDSVK | GRTAGTFDS |
| 0.12 | 6/6 | GFDLNSYGIS | VIYSDGRRTFYGDQVK | GKAAGTFDV |
| 0.56 | 6/6 | GFDLDEYGIS | VIYADGSRTAYADSVK | GENAGTFDT |
| 0.93 | 4/6 | GFTLMSYGIS | VIYADGRRTFYGDSVK | GQAAGTFES |
| -0.83 | 6/6 | GFSLDEYGIS | VIYADGRRTFYQDSVK | GNVAGTFDS |
| -0.12 | 6/6 | GFELESYGIS | VIYADGRRTFYGDSVK | GRAAGTFDS |
| 1.16 | 6/6 | GFNLNSYGIS | VIYSDGRRTFYQDKVK | GRTAGTFDS |
| not detected | 0/6 | GFDLSEYGIS | VIYADGERANYVSNFK | GEQAGTFVL |
| not detected | 0/6 | GFELNSYGIS | VIYSDGRRTAYGDSVK | GRAYGTFDS |
| not detected | 0/6 | GFTANSYGIS | VIYSDGRRTFYGDSVK | GRQAGTFDL |
| -0.67 | 6/6 | GFDLNEYGIS | VIYADGSRTFYSDSVK | GNQAGTFDV |
| 1.41 | 1/6 | GFTLNSYGIS | VIYADGRRTFYGDSVK | GRAAGTFTL |
| 2.05 | 6/6 | GFSLNEYGIS | VIYSDGRRTFYGDSVK | GRTAGTFDR |
| 2.69 | 2/6 | GFTLNSYGIS | VIYSDGGRTFYGDSVK | GEAAGTKDS |
| not detected | 0/6 | GFTLSSYGIS | VIYSDGRRTFYGDSVK | GQNAGTFDM |
| 0.53 | 6/6 | GFTLNSYGIS | VIYSDGRRTFYGDDVK | GQTAGTFDV |
| -0.74 | 6/6 | GFDLNEYGIS | VIYADGRRTFYTDSVK | GEIAGTFDV |
| not detected | 0/6 | GFTLNSYGIS | VIYSDGRRTFYGDSVK | GRAEGTFDS |
| 2.33 | 1/6 | GFDINEYGVS | VIYADGMRTAYTDSVK | GEGAWIALV |
| not detected | 0/6 | GFTLNSYGIS | VIYSDGRRTFYTDSVK | GEAAGTKDS |
| 2.02 | 2/6 | GFNLSEYGIS | VIYADGMRSNYADSFK | GKSNNFFID |
| 1.36 | 6/6 | GFTLNSYGIS | VIYSDGRRTFYADSVK | GTASGTFDS |
| 0.79 | 6/6 | GFDLNEYGIS | VIYADGRRTAYSDSVK | GENAGTFDT |
| 1.06 | 6/6 | GETLNSYGIS | VIYSDGRRTAYHDSVK | GRAAGTFDS |
| not detected | 0/6 | GKSLNEFGIS | VIYADGVRRAYADDVK | GNAAGHFLS |
| not detected | 0/6 | GFDLDEYGIS | VIYADGIRYHYKDSVK | GNVVGSVLY |
| 1.16 | 6/6 | SFDLNSYGIS | VIYSDGRRTFYGDSVK | GEAAGTFDS |
| not detected | 0/6 | GFNLQEYGIS | VIYADGSRVVYQEKVK | GFSAGNFDT |
| not detected | 0/6 | GFQLNEYGIS | VIYSDGRRTFYGDSVK | GRNAGTFIS |
| 0.44 | 5/6 | GFDLNEYGIS | VIYADGKRTAYADSVK | GENGGTFDV |
| not detected | 0/6 | GFTLNSYGIS | VIYSDGRRTFYLDSVK | GMAACTFDS |
| -0.60 | 6/6 | GFDLNEYGIS | VIYADGMRTVYTDSVK | GQNAGTFDV |
| 0.08 | 6/6 | GFNLDEYGIS | VIYADGRRTFYADSVK | GQVAGTFDS |
| -0.11 | 6/6 | GFSLNEYGIS | VIYSDGRRTFYGDAVK | GRQAGTFDS |
| not detected | 0/6 | GFDLDSYGIS | VIYSMGRRTFYGDFVK | GREAGTFDS |
| not detected | 0/6 | GFQLNEYGIS | VIYADGKRSEYQDSVK | GGNNSSFSV |
| 0.06 | 6/6 | GFDLDEYGIS | VIYADGMRTFYADDVK | GNQAGTFDV |
| 0.47 | 6/6 | GFDLEDYGIS | VIYADGMRTAYIDSVK | GEAAGTFDV |
| not detected | 0/6 | GFTLNQYGIS | VIYSDGLRTFYGDSVK | GRAAITFDT |
| not detected | 0/6 | GFTLNSYGIT | VIYSDGRRTFYHDSVA | GQAAGTFDT |
| -0.50 | 6/6 | GFDLNEYGIS | VIYADGVRTFYSDSVK | GTVAGTFDV |
| 0.09 | 6/6 | GFDLNKYGIS | VIYSDGRRTFYGDSVK | GQAAGTFDS |
| not detected | 0/6 | GFDLNSYGIS | VIYSDGRRTAYGDSVK | GRAHGNFDS |
| 0.05 | 6/6 | GFDLNEYGIS | VIYADGRRTAYSDSVK | GNVAGTFDM |
| not detected | 0/6 | GFTLNSYGIS | VIYSDGRRTFYGDSVV | GRAAGTFDD |
| not detected | 0/6 | GFTLISYGIS | VIYSDGRRTFYGDSVK | GQAAGTFRS |
| not detected | 0/6 | GFTLESYGIS | VIYADGRRTFYGDSVK | GRAAGTFKS |
| not detected | 0/6 | GFSLNSHGIS | VIYSDGRRTFYSDRVK | GKATGTFDS |
| 1.59 | 2/6 | DFTLQSYGIS | VIYSDGRRTFYGDSVK | GRAAGTFDS |
| not detected | 0/6 | GFTLNSYGIS | VIYSDGRRTMYGGSVK | VTTAGIFDS |
| 1.57 | 6/6 | GMSLNEYGIS | VIYSDGRRTFYGDSVK | GRTAGTFDS |
| 1.74 | 5/6 | GFTLNSYGIS | VIYSDGRRTFYIDSVK | GEQAGTFDS |
| -0.14 | 6/6 | GFSLNEYGIS | VIYSDGRRTFYGDSVK | GTAAGTFDK |
| not detected | 0/6 | GFTLDEYGIS | VIYADGTRTAYIDDVK | GQMGGNGYV |
| -0.08 | 6/6 | GFSLNEYGIS | VIYSDGRRTFYGDSVK | GRIAGTFDG |
| 0.41 | 6/6 | GFDLNEYGIS | VIYADGVRTAYVDSVK | GNVAGTFDV |
| 0.35 | 6/6 | GFQLNEYGIS | VIYSDGRRTFYSDSVK | GTAAGTFDS |
| 0.95 | 6/6 | GFDLNEYGIS | VIYADGRRTSYKDSVK | GEQAGTFDV |
| not detected | 0/6 | GFDLNEYGIS | VIYADGMRTFYADSVK | GQAAGTFTL |
| not detected | 0/6 | GFTLKSYGIS | VIYSDGKRTFYSDSVK | DRAAGTFDS |
| 1.07 | 6/6 | GFTLNEYGIS | VIYSDGRRTFYGDSVK | GRVAGTFTS |
| -0.38 | 6/6 | GFDLNEYGIS | VIYADGMRTAYADDVK | GANAGTFDQ |
| 0.90 | 6/6 | GFTLNEYGIS | VIYADGRRTFYSDSVK | GRAAGTFDS |
| -0.01 | 6/6 | GFSLNEYGIS | VIYSDGRRTMYIDSVK | GRAAGTFDS |
| -0.41 | 6/6 | GFDLDEYGIS | VIYADGRRTAYADSVK | GENAGTFDL |
| not detected | 0/6 | GFWLNEYGIS | VIYSDGRRTFYGDSVK | GRAAGFFDS |
| -0.59 | 6/6 | GFDLNEYGIS | VIYADGRRKAYADSVK | GNVAGTFDQ |
| 2.13 | 3/6 | GFTLNEYGIS | VIYSDGRRTFYGDQVK | GRTAGTFDS |
| 0.14 | 6/6 | GFELNSYGIS | VIYSDGRRTFYSDSVK | GQVAGTFDS |

For reference, 10 entries of the list once more:

CDR-H1	CDR-H2	CDR-H3	log10 Kd (nM), mean	replicates with signal
GFNLNSYGIS	VIYSDGRRTFYQDKVK	GRTAGTFDS	1.16	6/6
GFDLNEYGIS	VIYADGRRTSYKDSVK	GEQAGTFDV	0.95	6/6
GFTLNSYGIS	VIYSDGRRTFYGDSVV	GRAAGTFDD	not detected	0/6
GFTLNSYGIT	VIYSDGRRTFYHDSVA	GQAAGTFDT	not detected	0/6
GFTLNSYGIS	VIYSDGRRTFYGDDVK	GQTAGTFDV	0.53	6/6
GFTLNSYGIS	VIYADGRRTFYGDSVK	GRAAGTFTL	1.41	1/6
GFDLNEYGIS	VIYADGMRTFYADSVK	GQAAGTFTL	not detected	0/6
GFTLNSYGIS	VIYSDGGRTFYGDSVK	GEAAGTKDS	2.69	2/6
GFSLDEYGIS	VIYADGRRTFYQDSVK	GNVAGTFDS	-0.83	6/6
GFDLNEYGIS	VIYADGRRTFYTDSVK	GEIAGTFDV	-0.74	6/6